We go through five compounds from ChEMBL document CHEMBL3352357, “Synthesis and pharmacological evaluation of 5-pyrrolidinylquinoxalines as a novel class of peripherally restricted κ-opioid receptor agonists” (J Med Chem, 2014).

Protein sequences, listed by entry. Tags and fused reporters are not part of them.
UniProt P41143, whole entry: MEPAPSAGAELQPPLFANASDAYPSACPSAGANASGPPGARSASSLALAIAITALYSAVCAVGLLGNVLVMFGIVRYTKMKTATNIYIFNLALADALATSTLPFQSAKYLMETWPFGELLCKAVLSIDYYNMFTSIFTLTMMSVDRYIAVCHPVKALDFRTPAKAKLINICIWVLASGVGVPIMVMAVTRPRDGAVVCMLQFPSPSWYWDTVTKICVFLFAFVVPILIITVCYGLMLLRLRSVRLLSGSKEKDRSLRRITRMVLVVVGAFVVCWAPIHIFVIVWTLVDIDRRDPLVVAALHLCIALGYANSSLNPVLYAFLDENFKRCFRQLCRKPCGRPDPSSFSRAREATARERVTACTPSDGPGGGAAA
UniProt Q60492, whole entry: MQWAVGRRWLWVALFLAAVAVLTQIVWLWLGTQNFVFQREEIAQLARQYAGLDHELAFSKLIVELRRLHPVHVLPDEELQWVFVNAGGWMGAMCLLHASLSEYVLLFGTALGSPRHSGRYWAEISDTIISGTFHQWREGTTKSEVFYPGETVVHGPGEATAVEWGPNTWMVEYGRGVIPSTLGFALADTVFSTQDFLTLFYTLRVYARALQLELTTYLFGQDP

For assay [1], the target named is Delta-type opioid receptor (Homo sapiens, UniProt P41143). The assay is described as follows: Displacement of [3H]-deltorphine from human delta opioid receptor expressed in CHO-K1 cells at 10 uM by scintillation counting analysis. The assay is classed as cell-based. On the technique in general: In a radioligand displacement assay an active substance lowers the binding of a labelled ligand.

Assay [2] concerns the target Sigma non-opioid intracellular receptor 1 (Cavia porcellus) (UniProt Q60492). Nature of the assay: Displacement of [3H]-(+)-pentazocine from sigma-1 receptor in guinea pig brain cortex membranes at 10 uM. The note with it: Cerebral cortex. The assay is classed as cell membranes.

For orientation: inhibition means the change of the read-out against control, counted positive when it falls. For the compound `O=C(Cc1ccc(Cl)c(Cl)c1)N1CCN(Cc2cnc[nH]2)C2CCCC(N3CCCC3)C21` (centres undefined), the inhibition in assay [1] was found to be 27%; in assay [2], 15%.

As to `O=C(c1ccccc1)N1CCN(C(=O)Cc2ccc(Cl)c(Cl)c2)C2C(N3CCC(O)C3)CCCC21` (centres undefined), the inhibition in assay [1] worked out at 22%; in assay [2] it was 16%.

In assay [2], `COC(=O)N1CCN(C(=O)Cc2ccc(Cl)c(Cl)c2)[C@H]2[C@H]1CCC[C@@H]2N1CCCC1` came in with an inhibition of 0%.

`O=C(c1ccccc1)N1CCN(C(=O)Cc2ccc(Cl)c(Cl)c2)C2C(N3CCCC3)CCCC21` (centres undefined): the values for the inhibition in assay [1] and in assay [2] were 15% and 21%, respectively.

For the compound `CCC(=O)N1CCN(C(=O)Cc2ccc(Cl)c(Cl)c2)C2C(N3CCCC3)CCCC21` (centres undefined), the inhibition in assay [1] amounted to 10%; in assay [2], 0%.
